PMC3179181 (Journal of medicinal chemistry, 2010)

Experiments:
non-transformed cells = conditions: data not shown
[1] = well-stirred model, from rat microsomal CLint
in vitro = conditions: rat, microsomes, pH 7.4

In the case of `O=C(NCCN1CCC2(CC1)C(=O)NCN2c1cccc(F)c1)c1ccc2ccccc2c1` [22a, N-(2-(1-(3-fluorophenyl)-4-oxo-1,3,8-triazaspiro[4.5]decan-8-yl)ethyl)-2-naphthamide], the cytotoxicity (non-transformed cells) is reported as “significantly less cytotoxic”, the “predicted hepatic clearance (CLhep)” value [1] is reported as 52 mL/min/kg and the CLint scaled at 1 µM (in vitro) is reported as 203 mL/min/kg.
